{"source": "patent US9493769B2", "about": "(priority 2004, dated 2016)", "target": "PNL4.3 protease (sensitive viral protease in its precursor context, wild HIV-1 strain pNL4.3) (Human immunodeficiency virus type 1 group M subtype B, UniProt P12497)", "assay": "cell-based"}
{"smiles": "Cc1cccc(C)c1OCC(=O)N[C@@H](Cc1ccccc1)[C@@H](O)C[C@H](Cc1ccccc1)NC(=O)[C@H](C(C)C)N1CCCNC1=O", "note": "[Lopinavir, lopinavir]", "values": [{"measurement": "IC50", "value": 39.2, "unit": "µM"}]}
